Laboratory results published in US20050239757A1, “Hormone treatment of macular degeneration” (priority 2004, published 2005).

Tests used:
[1] = tested on: serum anti-estrogen IgG antibodies; assay: Competition ELISA: absorption of serum IgG anti-estrogen with specific and non-specific antigens; assay type: binding, human; settings: for Serum anti-estrogen IgG level after absorption: antigen 250 μg/mL, optical density at 405 nm
Method: (§1) Enzyme-linked immunosorbent assay (ELISA) was used for testing antibodies against estrogen and progesterone in the sera of patients with premenstrual asthma and with control subjects. […] Plates were incubated overnight at 4° C. and then washed three times with […] of Tris-buffered saline (TBS) containing 0.05% Tween 20, pH 7.4. […] The optimal dilution of serum was determined by checkerboard dilution and found to be 1:100 for IgG and IgM and 1:2 for IgE. Plates were incubated for 2 h (for IgG and IgM) and overnight (for IgE), and then washed four times with PBS-Tween 20. Alkaline-phosphatase-conjugated goat anti-human IgG, IgM or IgE F(ab′)2 fragment at optimal dilution of 1:700 (IgG); 1:500 (IgM) and 1:250 (IgE) was added to corresponding wells. The plates were then incubated for an additional 2 h at room temperature. After washing five times with TBS-Tween buffer, the enzyme reaction was started by adding 100 μl of para-nitrophenylphosphate in 0.1 mL of diethanolamine buffer (1 mg/ml) containing 1 mM MgCl2 and sodium azide, pH 9.8. The reaction was stopped 45 minutes later with 50 μl of 1 N NaOH. The optical density was read at 405 nm (OD405) with a microtiter reader.
(§2) 100 μl of serum diluent buffer was added to all wells. […] After a 60-minute incubation, 100 μl serum anti-estrogen or anti-progesterone was added to all wells. […] Results were calculated as a percentage of inhibition in antigen-antibody reaction.
(§3) To examine whether antibodies to estrogen or progesterone are specific or cross-reactive, competition ELISA was performed by adding specific and non-specific antigens in liquid phase and examined prevention of serum antibody binding to the antigen in solid phase. […] For IgE anti-estrogen this inhibition by estrogen-BSA was between 54-62%, and with progesterone-BSA from 37-43%. […] This cross-reaction between estrogen and progesterone antibodies may be due to structural similarities between these two hormones.

[2] = tested on: serum anti-estrogen IgE antibodies; assay: Competition ELISA: absorption of serum IgE anti-estrogen with specific and non-specific antigens; assay type: binding, human; settings: for Serum anti-estrogen IgE level after absorption: antigen 250 μg/mL, optical density at 405 nm
Method: as §1, §2, §3

[3] = antigen added to the liquid phase

human serum albumin [HSA]
Absorption of serum IgG antibodies, in words [1, 3]: did not absorb | Serum anti-estrogen IgG level after absorption ([1]; serum sample 1, before absorption 1.83): 1.81 | Serum anti-estrogen IgG level after absorption ([1]; serum sample 2, before absorption 1.25): 1.19 | Serum anti-estrogen IgG level after absorption ([1]; serum sample 3, before absorption 0.76): 0.78 | Absorption of serum IgE antibodies, in words [2, 3]: did not absorb | Serum anti-estrogen IgE level after absorption ([2]; serum sample 1, before absorption 2.15): 2.11 | Serum anti-estrogen IgE level after absorption ([2]; serum sample 2, before absorption 1.66): 1.59 | Serum anti-estrogen IgE level after absorption ([2]; serum sample 3, before absorption 1.34): 1.21
